scFv variants of Ab-14 (heavy chain) against a SARS-CoV-2 spike peptide

Target: peptide PDVDLGDISGINAS, taken from heptad repeat 2 (HR2) of SARS-CoV-2 spike.

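The parent was found by panning a naive human phage display library on the peptide. These sequences belong to a second round, designed from the earlier measurements on random variants of the parent. Group labels follow the data file (Ctrl: baseline library sampled from a position-specific scoring matrix, with some repeated check sequences; Rand: our label for a block that the file lists under HC and that is probably the random mutants of the ten best first-round binders; En: ensemble of fine-tuned language models; GP: Gaussian process model; GPLM: also part of the Gaussian process libraries; HC: hill climbing; Gen: genetic algorithm; Gibbs: Gibbs sampling; a sequence that several methods proposed may carry one label only). The assay is AlphaSeq: two haploid yeast populations carry antibody and antigen on their surface. Pairs that bind mate more often; barcode pairs of the diploids are counted by sequencing. Each replicate has its own calibration line, from reference interactions of the BCL2 family. The assay was run in six technical replicates.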

Ab-14 is the parent antibody, in scFv form: VH, then three GGGGS repeats, then VL. The light chain is unchanged in all variants.
VH: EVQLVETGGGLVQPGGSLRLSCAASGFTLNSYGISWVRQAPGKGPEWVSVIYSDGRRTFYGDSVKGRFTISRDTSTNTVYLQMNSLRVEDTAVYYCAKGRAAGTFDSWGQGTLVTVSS
VL: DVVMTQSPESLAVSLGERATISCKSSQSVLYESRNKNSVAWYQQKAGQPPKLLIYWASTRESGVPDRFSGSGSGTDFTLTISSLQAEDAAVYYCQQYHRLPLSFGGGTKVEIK

The parent's heavy chain CDRs are GFTLNSYGIS, VIYSDGRRTFYGDSVK, GRAAGTFDS; each variant's own CDRs replace them letter for letter. Variants here have at most six changes. Values are apparent Kd, the geometric mean of the replicates that gave a signal; lower means stronger binding. Where no diploid with the target was found in any replicate, the entry reads "not detected": below detection, most likely a poor binder, though not proof of it. In the paper, a design with two or fewer of six values counts as a poor binder. As a blank, each scFv also met three strains without target: over all heavy chain designs, 1% of these pairings were detected, typically at 120 nM and seldom below 7.0 nM. The range of this assay differs from that of the first round, and the authors advise against merging the two. Some sequences occur more than once in the pool; their replicates are pooled. Of ten entries with the parent sequence, four were seen in most replicates (averages 2.2 nM to 240 nM), three in one and three in none, so single entries are noisy.

CDR-H1,CDR-H2,CDR-H3,group,apparent Kd,replicates with signal
GFRLNEYGIS,VIYSDGRRTFYGDSVK,GRAAGTFDK,GP_HC,6.1 nM,3/6
GFTLNKYGIS,VIYSDGRRTFYGDSVK,GRAAGTFSS,Ctrl,not detected,0/6
GFDLNEYGIS,VIYADGRRTFYADSVK,GNAAGTFDI,En_HC,430 pM,6/6
GFALNEYGIS,VIYSDGRRTFYGDSVK,GWTAGTFDS,GP_Gen,2.9 nM,6/6
GFNLNSYGIS,VIYSDGLRTSYGDSVK,GRAAVTFDS,Ctrl,not detected,0/6
GFDLNSYGIS,VIYSDGRRTFYVDMVK,GKAAGTFDV,GP_Gibbs,not detected,0/6
GFALNEYGIS,VIYSDGRRTFYGDSVK,GRVAGTFDS,GP_Gibbs,680 pM,6/6
GNTLNSYGIS,VIYSDGRRTFYGDSVK,GRIAGTFDS,Ctrl,67 nM,4/6
GFELNSYGIS,VIYSDGRRTFYGDSVK,GMQAGTFDS,GP_Gen,3.0 nM,6/6
GFTLNSYGIS,VIYSDGRRTFYGDSVK,GRAMGTFDS,Ctrl,not detected,0/6
GHTLNSYGIS,VIYSDGRRTFYDDSVK,GQLANTFDS,Rand,not detected,0/6
GFTLNEMGIS,VIYSDGRRTFYGDSVK,GRAAVTFDM,GP_HC,not detected,0/6
GFTLNDYGIS,VIYSDGRRTFYGDSVK,GRAAKTFIS,Rand,not detected,0/6
GFTLNDYGIS,VIYSDGYRTFYGDSVK,GSETGTFDS,Ctrl,not detected,0/6
SFDLNSYGIS,VIYSDGRRTFYGDSVK,GRQAGTFDS,GP_Gen,47 nM,4/6
GFELNSYGIS,VIYSDGRRTFYGDSVK,GNEAGTFDS,GP_Gen,710 pM,6/6
GFTLNSYGIS,VIYSDGRRDFYLDSVK,RRAAKTFDS,Ctrl,not detected,0/6
GFSLNEYGIS,VIYSDGMRTFYGDSVK,GRTAGTFDS,GP_Gen,640 pM,6/6
GFTLNSYGIS,VIYSDGRRTFYGDSVK,GEAAGTFDK,GPLM_Gen,15 nM,5/6
GFSLNDYGIS,VIYSDGRRTYYGDSVK,GRAAGTFDS,GP_HC,5.3 nM,6/6
GFTLNSYGIS,VIYSDGYRTFYSDSVK,GRAAGTFDS,Ctrl,1.8 nM,6/6
GFTLNSYGIS,VIYSDGRRTFYGDSVK,GTAAGSFDS,Ctrl,4.4 nM,6/6
GFDLNSYGIS,VIYSDGRRTFYGDSVK,GRAAGHFTS,GPLM_HC,1.9 nM,6/6
DFTLNSYGIS,VIYSDGRRTFYGDEVK,GRLAGTFDS,Ctrl,23 nM,6/6
GFPLNSYGIS,VIYSDGRRTFYGDDVK,GRAAGTFDS,Ctrl,not detected,0/6
GFYLNSYGIS,VIYSDGRRTFYSDSVK,GEAAGTFDS,GPLM_Gen,20 nM,6/6
GFTLNSYGIS,VIYSDGRRTFYDDSVK,GQLAFTFDS,Rand,not detected,0/6
GFELNEYGIS,VIYSDGRRTFYGDSVK,GRAAVTFDQ,GPLM_HC,50 nM,1/6
GFDLNSYGIS,VIYSDGRRTFYGDSVK,GREAGTFDQ,GPLM_Gibbs,3.8 nM,6/6
GVTLNSYGIS,VIYSDGYRTFYGDSVK,GRAAGTFDS,Ctrl,not detected,0/6
GFTLNSYSIS,VIYSDGRRTFYHDDVK,IRAAGTFDS,Ctrl,not detected,0/6
GFTLNSYGIS,VIYSDGIRTFYGDSVK,GQHAGTFDS,Ctrl,16 nM,2/6
GFTLNEYGIS,VIYSDGRRTFYGDSVK,GRAAVTFDK,GPLM_HC,340 pM,6/6
GFTLNEYGIS,VIYADGRRTFYHDSVK,GWAAGTFDS,Ctrl,4.0 nM,6/6
GFTLNSYGIS,VIYSDGRRTFYQDSVK,GTAAGTFFL,Ctrl,96 nM,2/6
GFTLNSYGIS,VIYSDGCRTFYTDSVK,GNAAGTFDS,GP_Gibbs,100 nM,5/6
HFTLNFYGIS,VIYSDGKRTFYGDSVK,GRATGTFDS,Ctrl,not detected,0/6
GFELNSYGIS,VIYSDGRRTFYADSVK,GWAAGTFDS,GPLM_Gen,6.7 nM,6/6
GVTLNEYGIS,VIYSDGRRTFYEDSVK,GEAAGTFDS,Ctrl,63 nM,4/6
GFELNSYGIS,VIYSDGRRTFYVDSVK,GRMAGTFDT,GP_Gibbs,14 nM,5/6
GFSLNSYGIS,VIYSDGRRTFYGDSVK,GRTAGTFDW,GPLM_Gen,50 nM,6/6
GYTLNEYGIS,VIYSDGRRTFYGDSVK,GRNAGTFDT,GP_Gen,29 nM,1/6
GFTLGSYGIS,VIYADGRRTFYGDSVK,GRAAGTFVS,Ctrl,not detected,0/6
KFTLNSYGIS,VIYSDGRRTFYADDVE,GRAAQTNDS,Ctrl,not detected,0/6
GFDLNSYGIS,VIYSDGRRTFYSDSVK,GRAGGSFDS,GPLM_HC,not detected,0/6
GFDLNEYGIS,VIYSDGRRTFYGDSVK,GRAAGTFDT,GP_HC,680 pM,6/6
GFTLNEYGIS,VIYSDGRRTFYDDSVK,GRAAGTFDS,Ctrl+GPLM_HC,1.5 nM,12/12
GFDLNSYGIS,VIYSDGRRTFYIDSVK,GTAAGTFDS,GP_Gen,1.9 nM,6/6
GFALNEYGIS,VIYSDGRRTFYKDSVK,GKAAGTFDS,GPLM_Gibbs,2.4 nM,6/6
GFHLNSYGIS,VIYSDGRRTFYADSVK,GKVAGTFDS,GPLM_Gibbs,3.5 nM,6/6

The measurements come from Li et al. 2023 (doi:10.1038/s41467-023-39022-2) through the FLAb antibody collection.